We go through one substance from publication PMC6698841.

Chains of the proteins cited; added tags and fusions are not shown. Where a name states a change or a piece, a line headed by the entry shows the natural chain unless it says otherwise. A line that says so, or that is headed by a name, gives the form on record, which may keep a tag or linker.
Variant 791 (trastuzumab with heterodimerising CH3 mutations only, no CH2 mutations) (human), light, as listed by the source, chain 2 of 2: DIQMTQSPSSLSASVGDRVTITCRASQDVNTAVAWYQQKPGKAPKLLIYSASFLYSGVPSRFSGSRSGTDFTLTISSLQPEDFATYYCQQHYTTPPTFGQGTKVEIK

The target in this assay is Variant 791 (trastuzumab with heterodimerising CH3 mutations only, no CH2 mutations) (human). As to the kind of experiment: SPR; ProteOn XPR36, 25 °C; 10 mM HEPES, 150 mM NaCl, 3.4 mM EDTA, 0.05% Tween 20, pH 7.4; trastuzumab variants captured (approx. 500 RU) on amine-coupled recombinant HER-2 (GLM chip); FcγRs injected as analyte, five concentrations in 3-fold dilution; Equilibrium Fit model, mean of two or three runs. Background: In SPR one partner is held on a chip, and binding of the other changes the refractive index at the surface.

In the case of “FcγR 2b (from UniProt P31994 43-310) (receptor)”, the Kamut/KaWT (WT: homodimeric trastuzumab) amounted to 1.2.
